Laboratory results: US20240024233A1, “Oral Hydrogel Compositions and Uses” (Colgate-Palmolive Company, priority 2020, published 2024)

Assay: Sustained release of entrapped agent (FD&C Blue 1 dye) from gel
Format: physicochemical
Conditions: entrained in the gel at 2% to 10% w/w

With zinc salicylate the “release from the gel” value was “steady release over a six-hour period”.
